The results in this text go back to PubChem BioAssay AID588354 (The Scripps Research Institute Molecular Screening Center, 2011).

Chains of the proteins cited; added tags and fusions are not shown.
UniProt Q15788, whole entry: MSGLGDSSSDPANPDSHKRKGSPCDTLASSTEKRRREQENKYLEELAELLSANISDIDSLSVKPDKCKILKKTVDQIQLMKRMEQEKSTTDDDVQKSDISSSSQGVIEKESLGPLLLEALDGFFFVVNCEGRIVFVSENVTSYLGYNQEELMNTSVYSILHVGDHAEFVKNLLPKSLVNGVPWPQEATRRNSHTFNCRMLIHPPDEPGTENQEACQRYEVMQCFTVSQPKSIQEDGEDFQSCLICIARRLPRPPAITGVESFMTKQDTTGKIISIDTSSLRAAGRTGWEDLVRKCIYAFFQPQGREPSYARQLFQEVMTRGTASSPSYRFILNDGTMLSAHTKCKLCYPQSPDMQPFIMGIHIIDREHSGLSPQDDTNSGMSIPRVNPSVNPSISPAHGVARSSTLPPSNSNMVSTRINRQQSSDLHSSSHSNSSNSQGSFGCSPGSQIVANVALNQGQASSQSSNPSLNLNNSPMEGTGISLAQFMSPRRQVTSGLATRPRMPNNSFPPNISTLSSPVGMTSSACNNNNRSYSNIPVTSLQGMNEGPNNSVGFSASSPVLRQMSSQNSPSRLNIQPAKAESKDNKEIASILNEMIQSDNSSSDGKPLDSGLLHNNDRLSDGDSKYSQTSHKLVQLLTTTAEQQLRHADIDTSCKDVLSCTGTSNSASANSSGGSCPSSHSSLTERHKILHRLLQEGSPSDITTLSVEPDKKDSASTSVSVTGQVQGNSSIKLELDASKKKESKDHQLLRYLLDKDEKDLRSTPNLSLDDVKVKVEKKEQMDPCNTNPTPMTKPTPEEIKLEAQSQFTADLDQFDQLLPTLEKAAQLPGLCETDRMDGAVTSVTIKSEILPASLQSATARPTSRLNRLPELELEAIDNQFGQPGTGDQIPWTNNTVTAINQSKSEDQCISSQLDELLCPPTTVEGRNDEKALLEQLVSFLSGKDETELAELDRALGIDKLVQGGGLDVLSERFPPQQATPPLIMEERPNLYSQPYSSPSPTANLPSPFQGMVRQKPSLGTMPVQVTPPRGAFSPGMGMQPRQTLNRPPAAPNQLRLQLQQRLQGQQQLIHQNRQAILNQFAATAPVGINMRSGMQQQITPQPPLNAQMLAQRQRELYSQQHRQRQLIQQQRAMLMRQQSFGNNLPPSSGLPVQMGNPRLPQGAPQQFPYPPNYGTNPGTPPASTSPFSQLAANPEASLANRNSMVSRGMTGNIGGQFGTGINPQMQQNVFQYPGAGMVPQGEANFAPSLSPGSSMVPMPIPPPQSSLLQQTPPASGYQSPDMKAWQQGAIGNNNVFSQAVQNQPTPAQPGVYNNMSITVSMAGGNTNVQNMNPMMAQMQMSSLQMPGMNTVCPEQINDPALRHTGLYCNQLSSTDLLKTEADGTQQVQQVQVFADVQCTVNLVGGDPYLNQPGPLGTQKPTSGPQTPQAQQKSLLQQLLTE

The structures appear in SMILES notation. Only a part is listed here, and it is no random draw. Calls of active or inactive are those of the source.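 The calls were made as follows: active = inhibition above the campaign mean plus 3 SD, with each screening campaign given its own cutoff (cut at about 60% in these data); inactive = the rest.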

The assay addresses Nuclear receptor coactivator 1 (Homo sapiens) (UniProt Q15788). The assay can be described thus: NCOA1 GAL4-fusion reporter inhibition – cell-based, luminescence, primary screen (AID 588354).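 Also: 0% = DMSO treated cells and 100% = gossypol at 36 µM.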 The settings on record: HEK293 GAL4-SRC1 luciferase reporter, at 3.6 µM, stronger effect = higher value. Background: A reporter such as luciferase makes a cellular process visible.
Consider `CCC(=O)N(c1ccccc1)C1(COC)CCN(CCc2cccs2)CC1`, for which the inhibition was inactive: -5.54%.

Take `CCC(=O)N(c1ccccc1)C1(COC)CCN(CCn2nnn(CC)c2=O)CC1`: the inhibition is inactive: 5.77%.

One may read the inhibition as the change of the read-out against control, counted positive when it falls.
